Experimental data taken from ChEMBL document CHEMBL1201862, “PubChem BioAssay data set” (2004).
This is one part of the list. Rule as the data show it: active = GI50 up to about 1.1 µM and inactive = higher. Only a part of the results of these assays is listed, not drawn at random.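 All cell lines were grown in 96-well plates and treated with compound for 48 hours. GI50 marks 50% less growth.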 For part of these data: Potency and affinity values are given separately.

tested on: SF-295; assay: NCI tumour cell line growth inhibition, 48 h

For CCN(CCO)CCO.Oc1c(Cl)c(Cl)c(Cl)c(Cl)c1Cl, which GI50 is on record?
Its GI50 is inactive: 19.7 µM.

N1=C(c2nnn[nH]2)NNC(c2nnn[nH]2)=N1 was tested. Which GI50 did it give?
The GI50 was inactive: > 100 µM.

Which GI50 does the source give for CC1=C[C@H]2O[C@@H]3[C@H](O)[C@@H](O)[C@](C)([C@@]2(O)CC1)[C@]31CO1 here?
The GI50 was active: 0.225 µM.

tested on: SF-539; assay: NCI tumour cell line growth inhibition, 48 h

For CCN(CCO)CCO.Oc1c(Cl)c(Cl)c(Cl)c(Cl)c1Cl, which GI50 is on record?
Its GI50 is inactive: 21.5 µM.

For N1=C(c2nnn[nH]2)NNC(c2nnn[nH]2)=N1, which GI50 is on record?
Its GI50 is inactive: > 100 µM.

CC1=C[C@H]2O[C@@H]3[C@H](O)[C@@H](O)[C@](C)([C@@]2(O)CC1)[C@]31CO1 was tested. Which GI50 did it give?
The GI50 was active: 0.217 µM.

tested on: SK-MEL-28; assay: NCI tumour cell line growth inhibition, 48 h

How did the GI50 turn out when CCN(CCO)CCO.Oc1c(Cl)c(Cl)c(Cl)c(Cl)c1Cl was run?
Its GI50 is inactive: 25.3 µM.

For N1=C(c2nnn[nH]2)NNC(c2nnn[nH]2)=N1, which GI50 is on record?
Its GI50 is inactive: > 100 µM.

CC1=C[C@H]2O[C@@H]3[C@H](O)[C@@H](O)[C@](C)([C@@]2(O)CC1)[C@]31CO1 was tested. Which GI50 did it give?
Its GI50 is active: 0.198 µM.
